This is an account of results in ChEMBL document CHEMBL2202969, “Discovery and evolution of phenoxypiperidine hydroxyamide dual CCR3/H₁ antagonists. Part I” (Bioorg Med Chem Lett, 2012).

For orientation: inhibition means the drop in the measured response relative to a control, in per cent.

A value given as a limit tells only on which side of the number the result lay.

The target of this assay is C-C chemokine receptor type 3 (Homo sapiens) (UniProt P51677). Briefly: Displacement of radioligand from human CCR3 expressed in recombinant CHOK1 cells at 1 uM after 1 hr. The conditions noted are these: CHO-K1.
For the compound `O=C(NC[C@@H](O)CN1CCC(Oc2ccc(Cl)c(Cl)c2)CC1)c1n[nH]c(=O)c2ccccc12`, the inhibition was more than 70%. The same measure for `O=C(NC[C@@H](O)CN1CCC(Oc2ccc(Cl)c(Cl)c2)CC1)c1c[nH]c2ccccc12`: more than 70%; for `N#Cc1cccc(OC[C@@H](O)CN2CCC(Oc3ccc(Cl)c(Cl)c3)CC2)c1`: more than 70%; for `CS(=O)(=O)c1ccccc1C(=O)NCC(O)CNC1CCN(Cc2ccc(Cl)c(Cl)c2)CC1` (stereo not given): more than 70%. The same measure for `N#Cc1cccc(OCCCN2CCC(Oc3ccc(Cl)c(Cl)c3)CC2)c1`: more than 70%.
